Experimental findings from patent EP3108897A1 (F. Hoffmann-La Roche AG, dated 2016) are described below.

Like-named read-outs stand apart in the source and are kept apart here.

Experiment in all cases: cell-based or functional assay
The target of assay [1] is T1, human wildtype CSF-1R (full-length) (human, UniProt P07333 20-972).
Assay [2] concerns the target T1, human wildtype CSF-1R (full-length). The source holds these as a separate data set.
The target is the same in assay [3]. This is another data set of the same source.

B1: Mab 2F11 (antibody, V domains shown)
VH: QVQLKESGPGLVAPSQSLSITCTVSGFSLTTYDISWIRQSPGKGLEWLGVIWTDGGTNYNSPFMSRLSIRKDNSKSQVFLKMNRLQTDDTAIYYCVRDQRLYFDVWGAGTTVTVSS
VL: NIVMTQSPKSMSMSVGERVTLNCKASEDVNTYVSWYQQQPEQSPKLLIYGASNRYTGVPDRFTGGGSTTDFTLTISSVQAEDLADYFCGQSFSYPTFGTGTKLEIK
With B1, the “IC50 CSF-1R Phosphorylation (phospho/total CSF-1R ELISA on lysates of NIH3T3-CSF-1R cells stimulated with hu CSF-1)” value in assay [1] stood at 0.219 µg/mL. Besides, the “IC50 of inhibition of survival of human monocytes cultured with 150 ng/ml huCSF-1 (CellTiterGlo)” value in assay [2] is 0.08 µg/mL.

B2: Mab 2E10 (antibody, V domains shown)
VH: QVQLKESGPGLVAPSKSLSITCTVSGSSLDSFDISWIRQSPGKGLEWLGVIWTGGGTNYNSGFMSRLRITKDNSKSQVLLKMNSLQSDDTAIYYCVRDPRLYFDVWGAGTTVTVSS
VL: NIVMTQSPKSMSMSVGERVTLSCKASEDVVTYVSWYQQKPDQSPKLLIYGASNRYTGVPDRFTGSGSATDFTLTISSVQAEDLADYYCGQTFSYPTFGTGTKLEIK
As to B2, the “IC50 CSF-1R Phosphorylation (phospho/total CSF-1R ELISA on lysates of NIH3T3-CSF-1R cells stimulated with hu CSF-1)” value in assay [1] came out at 0.752 µg/mL.

B3: hMab 2F11-f12 (antibody, V domains shown)
VH: QVQLVQSGAEVKKPGSSVKVSCKASGFSLTTYDISWVRQAPGQGLEWMGVIWTDGGTNYNSPFMSRVTITKDESTSTAYMELSSLRSEDTAVYYCVRDQRLYFDVWGQGTTVTVSS
VL: DIQMTQSPSSLSASVGDRVTITCRASEDVNTYVSWYQQKPGKAPKLLIYGASSLQSGVPSRFSGSGSGTDFTLTISSLQPEDFATYYCGQSFSYPTFGQGTKLEIK
Regarding B3, the “IC50 of inhibition of survival of human monocytes cultured with 150 ng/ml huCSF-1 (CellTiterGlo)” value in assay [3] was 0.09 µg/mL.
